Results published in patent EP4711372A1, “CRYSTAL FORM OF HETEROCYCLIC COMPOUND, SALT THEREOF, CRYSTAL FORM OF SALT THEREOF, AND USE” (Hubei Bio-Pharmaceutical Industrial Technological Institute …, priority 2023, dated 2024).

Experiment: Solid-state stability evaluation test (XRPD and HPLC)
Type: physicochemical
Conditions: peak at RRT 1.00 (compound represented by formula I-3B)
Procedure: The purity test, dynamic solubility test, and stability test in the assay were performed using an ultra-performance liquid chromatograph (UPLC).
Samples of the crystal form A of the compound represented by formula I-3B, the crystal form B of the compound represented by formula I-3B, the crystal form of the fumarate complex of the compound represented by formula I-3B, and the crystal form of the tartrate salt of the compound represented by formula I-3B were placed under conditions of 60°C/closed/1 day, 25°C/60% RH/open/1 week, and 40°C/75% RH/open/1 week, respectively. Their physical and chemical stability were evaluated by XRPD and HPLC.

Measured: HPLC purity

Cn1nc2cc(N3C[C@H]4C[C@H]4c4cc(C(=O)N5CCC(F)(F)CC5)cnc43)ccn2c1=O
99.68 area%: 25°C/60% RH/open/1 week | 40°C/75% RH/open/1 week | 60°C/closed/1 day | Onset
